# Assay results taken from patent publication EP2945947B1, “INHIBITING THE TRANSIENT RECEPTOR POTENTIAL A1 ION CHANNEL” (Merck Sharp & Dohme Corp., priority 2013, dated 2014).
# System: Female Sprague Dawley rats
# Assay: Rodent acute tolerability test with liver function tests (Example 5)
# Experimental: Compounds of Formula (Ia) were assessed for acute tolerability in a rodent model at dose levels ranging from 100 - 200 mg/kg based upon the minimum efficacious dose of each compound. Female Sprague Dawley rats were administered up to a 10 mL/kg dose volume of each compound in 0.9% saline at appropriate concentrations as an intravenous bolus via the lateral tail vein. The animals were observed immediately post dose and for up to twenty four hours post dose and clinical observations were recorded. Additionally, approximately twenty four hours post dose animals were euthanized and blood taken for serum chemistry analysis with a focus on liver function tests (LFTs). The maximum tolerated single dose and LFT results are summarized in Table 3, where (↔) indicates blood levels of markers for potential liver damage within normal range and (↑) indicates blood levels of markers for potential liver damage elevated above normal range. Referring to the data in Table 3, LFT blood levels of markers for potential liver damage remained within normal range for the compounds of Formula (Ia), while LFTs were elevated for Comparator Compounds including 5-10 fold elevation above normal for ALT and AST blood levels observed upon administration of Comparative Compound 1. […]
# [1] = single IV bolus dose 50 mg/kg, about 24 hours post dose
smiles,measurement,setting,value
C[C@H]1CCCN1c1ccc(-c2csc(NC(=O)Cn3cnc4c3c(=O)n(C)c(=O)n4C)n2)cc1F,elevation above normal for ALT and AST blood levels,"after administration, about 24 hours",5-10 fold
same,serum biomarkers of hepatotoxicity,animal studies of Example 5,elevate the serum biomarkers of hepatotoxicity
same,"blood levels of ALT and AST, of the high end of the normal ranges",intravenous bolus dose,"170-1,311%"
same,Alterations in LFT,[1],↑
same,LFT: % upper normal range ALT serum levels,[1],1000%
same,LFT: % upper normal range AST serum levels,[1],514%
